Data as given in ChEMBL document CHEMBL1275563, “Genetic characterization of Vga ABC proteins conferring reduced susceptibility to pleuromutilins in Staphylococcus aureus” (2008).

Legend:
Staphylococcus aureus [1] = details: RN4220
Staphylococcus aureus [2] = details: RN4220; remark: listed apart in the source
Staphylococcus aureus [3] = details: ATCC 29213

Measured: MIC

GENTAMICIN
0.5 µg/mL: all assays above
